{
  "source": "patent US20250140406A1",
  "about": "“CLASSIFYING TUMORS AND PREDICTING RESPONSIVENESS” (Oncocyte Corporation, priority 2022, published 2025)",
  "key": {"[1]": {"tested_on": "cancer cell lines classified IM, MSL, M", "experiment": "PRISM screen compound sensitivity correlated with IM, MSL and M subtype of cell lines (101 gene signature)", "format": "cell-based"}, "[2]": {"tested_on": "cancer cell lines, DetermaIO classes", "experiment": "Association of PRISM compound sensitivity with DetermaIO (DTIO) cell line classes", "format": "cell-based", "conditions": "correlation of PRISM compound sensitivity with DTIO"}},
  "data": [
    {"substance": "sodium-monofluorophosphate", "values": [
      {"measurement": "IM Corr test", "setting": "[1]; correlation of PRISM compound sensitivity with IM subtype correlation, test cell set (188 cell lines)", "value": 0.1269},
      {"measurement": "M Corr test", "setting": "[1]; correlation of PRISM compound sensitivity with M subtype correlation, test cell set (188 cell lines)", "value": "−0.1347"},
      {"measurement": "MSL Corr test", "setting": "[1]; correlation of PRISM compound sensitivity with MSL subtype correlation, test cell set (188 cell lines)", "value": "−0.08529"},
      {"measurement": "TNBCType train", "setting": "[1]; subtype (IM, MSL or M) the PRISM compound sensitivity is associated with, training cell set (371 cell lines), 101 gene signature", "value": "MSL"},
      {"measurement": "DTIO Corr test", "setting": "[2]; test cell set (188 cell lines)", "value": 0.04504},
      {"measurement": "DTIO Corr train", "setting": "[2]; training cell set (371 cell lines)", "value": "−0.02506"}
    ]}
  ]
}
